{"source": "patent US6379651B1", "about": "“Oral-topical dosage forms for delivering antibacterials/antibiotics to oral cavity to eradicate H. pylori as a concomitant treatment for peptic ulcers and other gastro-intestinal diseases” (priority 1995, dated 2002)", "origin": "cited, not measured here", "key": {"[1]": {"details": "rats treated for three months; 160, 320, and 640 mg/kg body weight; cited from earlier work"}, "[2]": {"details": "dogs treated for six months; 160, 320, and 640 mg/kg body weight; cited from earlier work"}}, "note": "Read-outs that look alike come from different tables or passages of the source."}
{"substance": "colloidal bismuth subcitrate [CBS]", "values": [{"measurement": "toxicity in chronic daily administration", "setting": "[1]", "result": "No toxicity"}, {"measurement": "toxicity in chronic daily administration", "setting": "[2]", "result": "No toxicity"}]}
